From patent US20160287666A1 (priority 2015, published 2016)
Where “and” joins values, the source holds several entries; their conditions need not be identical. Equal entries are not always repeated. Where two headings read alike, the source gives them in different places.

Chains of the proteins cited; added tags and fusions are not shown. Lines headed by an entry give the natural chain unless they say otherwise; changes in a name come on top.
UniProt Q15858: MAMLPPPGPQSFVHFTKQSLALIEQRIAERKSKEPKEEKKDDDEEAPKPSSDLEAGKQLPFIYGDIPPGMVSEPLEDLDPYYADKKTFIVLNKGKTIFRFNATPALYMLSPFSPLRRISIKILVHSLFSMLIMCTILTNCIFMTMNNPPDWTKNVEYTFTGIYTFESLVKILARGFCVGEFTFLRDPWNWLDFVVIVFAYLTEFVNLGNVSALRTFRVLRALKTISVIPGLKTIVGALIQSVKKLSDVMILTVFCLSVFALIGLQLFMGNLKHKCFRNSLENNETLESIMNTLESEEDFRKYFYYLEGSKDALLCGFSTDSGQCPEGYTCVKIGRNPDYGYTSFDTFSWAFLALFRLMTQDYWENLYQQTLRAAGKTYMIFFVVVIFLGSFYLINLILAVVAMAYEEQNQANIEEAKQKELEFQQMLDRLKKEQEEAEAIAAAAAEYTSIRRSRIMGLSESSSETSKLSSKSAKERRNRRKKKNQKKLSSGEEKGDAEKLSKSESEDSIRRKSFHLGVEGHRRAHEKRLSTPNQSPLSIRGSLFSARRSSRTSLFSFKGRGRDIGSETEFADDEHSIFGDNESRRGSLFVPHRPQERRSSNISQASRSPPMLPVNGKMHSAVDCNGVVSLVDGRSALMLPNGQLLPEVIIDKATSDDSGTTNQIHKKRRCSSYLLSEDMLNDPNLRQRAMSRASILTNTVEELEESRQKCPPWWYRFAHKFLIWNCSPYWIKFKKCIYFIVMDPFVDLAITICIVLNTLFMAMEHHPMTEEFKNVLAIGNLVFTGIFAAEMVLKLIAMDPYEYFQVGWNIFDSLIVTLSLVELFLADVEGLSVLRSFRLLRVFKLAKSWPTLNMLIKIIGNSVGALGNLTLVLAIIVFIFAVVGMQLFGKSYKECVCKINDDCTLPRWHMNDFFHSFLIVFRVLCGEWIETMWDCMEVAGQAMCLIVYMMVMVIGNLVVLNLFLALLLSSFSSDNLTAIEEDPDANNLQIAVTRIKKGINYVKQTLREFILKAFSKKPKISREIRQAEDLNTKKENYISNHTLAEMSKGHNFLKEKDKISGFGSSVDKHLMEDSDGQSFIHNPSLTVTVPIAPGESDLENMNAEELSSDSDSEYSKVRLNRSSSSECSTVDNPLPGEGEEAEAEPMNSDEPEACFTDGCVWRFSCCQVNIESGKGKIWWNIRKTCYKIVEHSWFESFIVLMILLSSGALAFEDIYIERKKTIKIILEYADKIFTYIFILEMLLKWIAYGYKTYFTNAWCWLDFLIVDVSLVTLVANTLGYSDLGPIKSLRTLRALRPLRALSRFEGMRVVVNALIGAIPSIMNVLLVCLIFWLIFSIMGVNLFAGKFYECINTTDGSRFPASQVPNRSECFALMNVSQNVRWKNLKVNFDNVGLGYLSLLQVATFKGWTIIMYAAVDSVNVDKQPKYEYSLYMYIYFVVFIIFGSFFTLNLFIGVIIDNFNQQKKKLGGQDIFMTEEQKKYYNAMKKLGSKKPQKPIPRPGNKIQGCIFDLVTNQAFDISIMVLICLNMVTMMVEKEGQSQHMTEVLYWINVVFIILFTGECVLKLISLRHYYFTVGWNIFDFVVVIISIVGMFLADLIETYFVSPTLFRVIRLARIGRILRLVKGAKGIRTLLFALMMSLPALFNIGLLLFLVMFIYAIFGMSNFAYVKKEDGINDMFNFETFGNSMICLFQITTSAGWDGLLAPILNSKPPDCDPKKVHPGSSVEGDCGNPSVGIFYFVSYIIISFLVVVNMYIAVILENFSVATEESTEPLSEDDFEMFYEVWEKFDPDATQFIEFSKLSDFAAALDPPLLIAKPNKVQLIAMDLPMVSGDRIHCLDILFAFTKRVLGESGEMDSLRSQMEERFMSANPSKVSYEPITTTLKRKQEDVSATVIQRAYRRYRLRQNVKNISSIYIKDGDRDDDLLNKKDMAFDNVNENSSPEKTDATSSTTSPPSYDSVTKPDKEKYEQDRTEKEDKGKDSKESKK

Molecular target: human Nav1.7 (Homo sapiens, UniProt Q15858, W1161R)
Type: cell-based

Substance | IC50 (read-out: Nav1.7 IC50) | IC50 (read-out: hNav1.7 TETRA IC50) [µM]
GPQCQKWMQTCDRERKCCEKFVCTLWCRKKLW-COOH [NV1D3391] | 0.157 µM | –
GPQCQKWMQTCDRERKCCEQFVCTLWCRKKLW-COOH [NV1D3396] | 0.0264 µM | –
GPQCQKWMQTCDRERKCCESFVCTLWCRKKLW-COOH [NV1D3397] | 0.0667 µM | –
GPQCQKWMQTCDRERKCCETFVCTLWCRKKLW-COOH [NV1D3392] | 0.117 µM | –
GPQCQKWMQTCDRERKCCGGFVCTLWCRKKLW-COOH [NV1D3467] | 0.0345 µM | –
GPQCQKWMQTCDRERKCCKGFVCTLWCRKKLW-COOH [NV1D3384] | 0.0468 µM | –
GPQCQKWMQTCDRERKCCQGFVCTLWCRKKLW-COOH [NV1D3388] | 0.0135 µM | –
GPQCQKWMQTCDRERKCCRGFVCTLWCRKKLW-COOH [NV1D3383] | 0.0303 µM | –
GPQCQKWMQTCDRERKCCSGFVCTLWCRKKLW-COOH [NV1D3389] | 0.0308 µM | –
GPQCQKWMQTCDRERKCCTGFVCTLWCRKKLW-COOH [NV1D3385] | 0.0415 µM | –
GPQCQKWMQTCDRERQCCEGFVCTLWCRKKLW-COOH [NV1D3381] | 0.0122 µM | –
GPQCQKWMQTCDRERRCCEGFVCTLWCRKKLW-COOH [NV1D3376] | 0.0163 µM | –
GPQCQKWMQTCDRERSCCEGFVCTLWCRKKLW-COOH [NV1D3382] | 0.0243 µM | –
GPQCQKWMQTCDRERTCCEGFVCTLWCRKKLW-COOH [NV1D3377] | 0.0364 µM | –
GPQCQKWMQTCDRESKCCEGFVCTLWCRKKLW-COOH [NV1D3375] | 0.113 µM | –
GPQCQKWMQTCDRETKCCEGFVCTLWCRKKLW-COOH [NV1D3370] | 0.181 µM | –
GPQCQKWMQTCDRKRKCCEGFVCRLWCKKKLW-COOH [NV1D3050] | 0.0108 µM | –
GPQCQKWMQTCDRKRKCCEGFVCRLWCRKKLW-COOH [NV1D3057] | 0.0834 µM | –
GPQCQKWMQTCDRKRKCCEGFVCTLWCKKKLW-COOH [NV1D3056] | 0.0162 µM | –
GPQCQKWMQTCDRKRKCCEGFVCTLWCRKKLW-COOH [NV1D3062] | 0.0132 µM | –
GPQCQKWMQTCDRNRKCCEGFSCTLWCRKKLW-COOH [NV1D3542] | 0.0177 µM | –
GPQCQKWMQTCDRNRKCCEGFVCRLWCKKKLW-COOH [NV1D3012] | 0.00774 µM | –
GPQCQKWMQTCDRNRKCCEGFVCRLWCRKKLW-COOH [NV1D3032] | 0.013 µM | –
GPQCQKWMQTCDRNRKCCEGFVCTLWCKKKLW-COOH [NV1D3030] | 0.0419 µM | –
GPQCQKWMQTCDRNRKCCEGFVCTLWCRKKLW-COOH [NV1D3044] | 0.0098 µM | –
GPQCQKWMQTCDRQRKCCEGFVCTLWCRKKLW-COOH [NV1D3367] | 0.0186 µM | –

Substance | IC50 (read-out: Nav1.7 IC50) | IC50 (read-out: hNav1.7 TETRA IC50) [µM]
GPQCQKWMQTCDRRRKCCEGFVCRLWCKKKLW-COOH [NV1D3013] | 0.0113 µM | –
GPQCQKWMQTCDRRRKCCEGFVCRLWCRKKLW-COOH [NV1D3033] | 0.0145 µM | –
GPQCQKWMQTCDRRRKCCEGFVCTLWCKKKLW-COOH [NV1D3031] | 0.013 µM | –
GPQCQKWMQTCDRRRKCCEGFVCTLWCRKKLW-COOH [NV1D3045] | 0.0156 µM | –
GPQCQKWMQTCDRTRKCCEGFVCTLWCRKKLW-COOH [NV1D3368] | 0.0335 µM and 0.0179 µM | –
GPQCQKWMQTCDSERKCCEGMVCRLWCKKKLW-COOH [NV1D2671] | – | 0.0315 ± 0.0064
GPQCQKWMQTCKRKDKCCEGFVCTLWCRKKLW-COOH [NV1D3426] | 0.135 µM | –
GPQCQKWMQTCKRKEKCCEGFVCTLWCRKKLW-COOH [NV1D3428] | 0.18 µM | –
GPQCQKWMQTCKRKRKCCEGFVCTLWCRKKLW-COOH [NV1D3424] | 0.0752 µM | –
GPQCQKWMQTCQRERKCCEGFVCTLWCRKKLW-COOH [NV1D3365] | 0.0661 µM | –
GPQCQKWMQTCRRERKCCEGFVCTLWCRKKLW-COOH [NV1D3360] | 0.0452 µM | –
GPQCQKWMQTCRRRDKCCEGFVCTLWCRKKLW-COOH [NV1D3425] | 0.161 µM | –
GPQCQKWMQTCRRRRKCCEGFVCTLWCRKKLW-COOH [NV1D3423] | 0.0995 µM | –
GPQCQKWMQTCSRERKCCEGFVCTLWCRKKLW-COOH [NV1D3366] | 0.0246 µM | –
GPQCQKWMQTCTRERKCCEGFVCTLWCRKKLW-COOH [NV1D3362] | 0.0201 µM | –
GPQCQKWMWTCDAERKCCEGFVCRLWCKKKLW-COOH [NV1D2740] | 0.00362 µM | –
GPQCQKWMWTCDAERKCCEGMVCRLWCKKKLW-COOH [NV1D2675] | 0.00433 µM | –
GPQCQKWMWTCDSERKCCEGFVCRLWCKKKLW-COOH [NV1D2665] | – | 0.0049 ± 0.0004
GPQCQQWMQTCDRERKCCEGFVCTLWCRKKLW-COOH [NV1D3351] | 0.0153 µM | –
GPQCQRWMQTCDRERKCCEGFVCTLWCRKKLW-COOH [NV1D3346] | 0.0232 µM | –
GPQCQSWMQTCDRERKCCEGFVCTLWCRKKLW-COOH [NV1D3352] | 0.0142 µM | –
GPQCRKWMQTCDRERKCCEGFVCTLWCRKKLW-COOH [NV1D3339] | 0.00657 µM | –
GPQCSKWMQTCDRERKCCEGFVCTLWCRKKLW-COOH [NV1D3345] | 0.0224 µM | –
GPQCTKWMQTCDRERKCCEGFVCTLWCRKKLW-COOH [NV1D3341] | 0.0662 µM | –
GPQRFVTGHFGGLYPANGAPAPAPAPAPQCQKWMQTCDRERKCCEGFVCTLWCRKKLW-COOH [NV1D3810] | 0.0669 µM | –
